Laboratory results taken from ChEMBL document CHEMBL1141687, “Design, syntheses, and structure-activity relationships of novel NPY Y5 receptor antagonists: 2-{3-Oxospiro[isobenzofuran-1(3H),4'-piperidin]-1'-yl}benzimidazole derivatives” (Bioorg Med Chem Lett, 2008).

What was measured:
[1] = Selectivity ratio of IC50 for NPY Y2 receptor to IC50 for human NPY Y5 receptor
[2] = Selectivity ratio of IC50 for NPY Y1 receptor to IC50 for human NPY Y5 receptor
[3] = Selectivity ratio of IC50 for NPY Y4 receptor to IC50 for human NPY Y5 receptor

Measured: Ratio IC50

O=C1OC2(CCN(c3nc4cc(-c5ccccc5)ccc4[nH]3)CC2)c2ccccc21
> 1000: [1] | [2] | [3]

COC(=O)c1ccc2[nH]c(N3CCC4(CC3)OC(=O)c3ccccc34)nc2c1
> 1000: [1] | [2] | [3]

O=C1OC2(CCN(c3nc4cc(Cl)c(Cl)cc4[nH]3)CC2)c2ccccc21
> 1000: [1] | [2] | [3]

O=C1OC2(CCN(c3nc4cc(Cl)ccc4[nH]3)CC2)c2ccccc21
> 1000: [1] | [2] | [3]
